Antibody variant affinities, Ab-14 heavy chain, assay B

Values reported by Li et al. 2023, doi:10.1038/s41467-023-39022-2 (FLAb copy).

The target is the same throughout: PDVDLGDISGINAS, from the HR2 region of SARS-CoV-2 spike.

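The parent was found by panning a naive human phage display library on the peptide. Designed CDR sequences, proposed from the first random library and measured here. Group labels follow the data file (Ctrl: baseline library sampled from a position-specific scoring matrix, with some repeated check sequences; Rand: our label for a block that the file lists under HC and that is probably the random mutants of the ten best first-round binders; En: ensemble of fine-tuned language models; GP: Gaussian process model; GPLM: also part of the Gaussian process libraries; HC: hill climbing; Gen: genetic algorithm; Gibbs: Gibbs sampling; a sequence that several methods proposed may carry one label only). The assay is AlphaSeq: two haploid yeast populations carry antibody and antigen on their surface. Binding brings cells together so that they mate, and sequencing counts the barcode pairs among the diploids. Scores were corrected for input abundance and mapped to Kd with protein pairs of known affinity run in the same pool. There are six technical replicates.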

Ab-14 is the parent antibody, in scFv form: VH, then a 15-residue (Gly4Ser)3 linker, then VL. The light chain is unchanged in all variants.
VH: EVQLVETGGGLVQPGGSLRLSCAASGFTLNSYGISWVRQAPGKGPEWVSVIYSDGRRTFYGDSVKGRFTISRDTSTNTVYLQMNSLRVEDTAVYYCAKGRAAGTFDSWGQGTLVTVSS
VL: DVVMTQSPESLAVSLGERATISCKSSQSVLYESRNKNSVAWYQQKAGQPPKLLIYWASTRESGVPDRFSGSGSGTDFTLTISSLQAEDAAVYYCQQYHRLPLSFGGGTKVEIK

The parent's heavy chain CDRs are GFTLNSYGIS, VIYSDGRRTFYGDSVK, GRAAGTFDS; each variant's own CDRs replace them letter for letter. This list holds designs with at most six substitutions. Values are apparent Kd, the geometric mean of the replicates that gave a signal; lower means stronger binding. Where no diploid with the target was found in any replicate, the entry reads "nd": below detection, most likely a poor binder, though not proof of it. The authors averaged sequences with at least three values out of six and counted those with two or fewer as poor binders. A sequence measured in both rounds can read differently, since the two assays cover different ranges. Of ten entries with the parent sequence, four were seen in most replicates (averages 2.2 nM to 240 nM), three in one and three in none, so single entries are noisy. Nonspecific signal, from three strains lacking the peptide, appeared in 1% of pairings of all heavy chain designs, centred on 120 nM (5% of these signals below 7.0 nM); values are not corrected for it. The control count says in how many pairings with the empty strains this scFv gave a signal.

* GFTLNSYGIG / VIYSDGRRTFYDDSVK / GQLAGTFWS [Rand]: 460 nM (1 of 6 replicates; controls 2 of 18)
* GFTLNSYGIS / VIYSDGRRTFYGDSVK / GNNAGTFNS [Ctrl]: 13 nM (3 of 6 replicates; controls 0 of 18)
* GFSLNSYGIS / VIYSDGRRWAYGDSVK / GRAAGTFDS [GP_Gen]: 97 nM (4 of 6 replicates; controls 1 of 18)
* GFTKNEYGIS / VIYSDGRRTFYGDSVK / GRAAVTFDQ [Rand]: nd (0 of 6 replicates; controls 0 of 18)
* GFTISSYGIS / VIYSDGRRTFYGDSVK / GRAAGTFDS [Ctrl]: 37 nM (4 of 6 replicates; controls 0 of 18)
* GFSLNSYGIS / VIYSDGRRTFYQDQVK / GEAAGTFDS [GP_Gen]: 33 nM (5 of 6 replicates; controls 0 of 18)
* GFSLNSYGIS / VIYSDGRRTFYKDSVK / GEAAGTFDN [GP_Gibbs]: 21 nM (6 of 6 replicates; controls 0 of 18)
* GFTLNEYGIS / VIYSDGRRTFYGDSVK / GRHAGTFIS [GPLM_HC]: nd (0 of 6 replicates; controls 0 of 18)
* MFDLNSYGIS / VIYSDGRRTFYADSVK / GKAAGTFDS [GP_Gen]: 5.6 nM (6 of 6 replicates; controls 0 of 18)
* GFVLNNYGIS / VIYSDGRRTFYDDSVK / GQLAGTFDS [GP_HC]: 17 nM (6 of 6 replicates; controls 0 of 18)
* GFDLNSYGIS / VIYSDGRRTFYHDSVK / GRAAGIFDS [GPLM_HC]: 2.0 nM (6 of 6 replicates; controls 1 of 18)
* GFSLNSYGIS / VIYSDGRRTFYDDSVK / GRQAGTFDS [GPLM_Gibbs]: 2.2 nM (6 of 6 replicates; controls 0 of 18)
* GFTLNDSGIS / VIYSDGRRTFYGDSVK / GRAALTFIS [Rand]: nd (0 of 6 replicates; controls 2 of 18)
* GFTLDSYGIS / VIYSDGRRTFYADSVK / GREAGTFDT [GP_Gibbs]: 990 pM (6 of 6 replicates; controls 0 of 18)
* GFDLNSYGIS / VIYSDGRRTFYIDRVK / GNAAGTFDS [GP_Gen]: 8.0 nM (6 of 6 replicates; controls 2 of 18)
* GFTLNEYGIS / VIYSDGRRTFYGDSVK / GRDWGTFDS [Ctrl]: nd (0 of 6 replicates; controls 0 of 18)
* GFTKNSYGIS / VIYSDGRRTFYGDSVK / GRLAGTFDS [Ctrl]: nd (0 of 6 replicates; controls 0 of 18)
* GFQLNSYGIS / VIYSDGRRTFYGDQVK / GKTAGTFDS [GP_Gen]: 200 nM (4 of 6 replicates; controls 0 of 18)
* GFTLNSYGIS / VIYSDGRRTFYGDSVK / GRAQGTFDS [Ctrl]: nd (0 of 6 replicates; controls 0 of 18)
* HFTLNSYGIS / VIYSDGRKTCYGDSVK / GRAAGTFDS [Ctrl]: nd (0 of 6 replicates; controls 0 of 18)
* GFTLNEYGIS / VIYSDGRRTFYSDSVK / GRAAGKFMS [GPLM_HC]: nd (0 of 6 replicates; controls 0 of 18)
* GFTLNEYGIS / VIYSDGRRTFYGDSVK / GKIAGTFDS [GP_Gen]: 1.9 nM (6 of 6 replicates; controls 0 of 18)
* GFELNSYGIS / VIYSDGRRTAYGDSVK / GRAYGTFDS [Ctrl]: nd (0 of 6 replicates; controls 0 of 18)
* GFNLNSYGIS / VIYSDGRRTFYVDSVK / GQTAGTFDK [GP_Gibbs]: 14 nM (5 of 6 replicates; controls 0 of 18)
* GFTLNSYGIS / VIYSDGIRTFYGDSVD / GRAAGTFDS [Ctrl]: 59 nM (1 of 6 replicates; controls 0 of 18)
* GFTLNSYGIS / VIYSDGIRTAYGDSVK / GRAAGTFIS [Ctrl]: nd (0 of 6 replicates; controls 0 of 18)
* GFTLNQYGIS / VIYSDGRRTFIGDSVK / GRAAGFFDS [Rand]: nd (0 of 6 replicates; controls 0 of 18)
* GFDLNEYGIS / VIYADGRRTFYTDSVK / GNNAGTFDS [En_HC]: 240 pM (6 of 6 replicates; controls 0 of 18)
* GFDLNSYGIS / VIYSDGRRTFYDDRVK / GRTAGTFDS [GP_Gen]: 1.7 nM (6 of 6 replicates; controls 1 of 18)
* GFDLNSYGIS / VIYSDGKRTFYGDSVK / GSAAGTFDS [GPLM_Gen]: 1.5 nM (6 of 6 replicates; controls 0 of 18)
* GFTLNSYGIS / VIYSDGRRTAYGDSVD / GRAAGTFDS [Ctrl]: 23 nM (6 of 6 replicates; controls 0 of 18)
* EFTLNEYGIS / VIYSDGRRTFYTDSVK / GRQAGTFDS [GP_HC]: 7.9 nM (6 of 6 replicates; controls 1 of 18)
* GFNLNSYGIS / VIYSDGRRTFYVDRVK / GRQAGTFDS [GP_Gen]: 1.1 µM (1 of 6 replicates; controls 0 of 18)
* GFDLNSYGIS / VIYSDGQRTFYGDSVK / GQTAGTFDS [GP_Gen]: nd (0 of 6 replicates; controls 0 of 18)
* GFTLNEYGIS / VIYSDGRRTFYGDSVK / GQAALTFDS [Ctrl]: nd (0 of 6 replicates; controls 0 of 18)
* GFSLNEYGIS / VIYSDGRRTWYGDQVK / GRAAGTFDS [GP_Gibbs]: 25 nM (6 of 6 replicates; controls 0 of 18)
* GFTLDSYGIS / VIYSDGRRTFYSDSVK / GSAAGTFDS [GPLM_HC]: nd (0 of 6 replicates; controls 0 of 18)
* GFTLNSYGIS / VIYSDGRRTFYSDSVK / GRVGGTFDT [GPLM_HC]: 3.2 nM (6 of 6 replicates; controls 0 of 18)
* GFELNSYGIS / VIYSDGKRTFYVDSVK / GRQAGTFDS [GP_Gen]: 15 nM (5 of 6 replicates; controls 0 of 18)
* GTTLNEYGIS / VIYSDGRRTFYGDSVK / GRAAGTFDS [Ctrl]: 110 nM (4 of 6 replicates; controls 0 of 18)
* GFDLNSYGIS / VIYSDGRRTFYGDSVK / GKTAGTFDS [GPLM_Gen]: 610 pM (6 of 6 replicates; controls 0 of 18)
* GFTLNEYGIS / VIYSDGRRTFYHDSVK / GRAAVTFDQ [GP_HC]: nd (0 of 6 replicates; controls 0 of 18)
* EFNLNSYGIS / VIYSDGRRTFYGDSVK / GRQAGTFDS [GP_Gibbs]: nd (0 of 6 replicates; controls 0 of 18)
* SFDLNSYGIS / VIYSDGRRTFYSDSVK / GRQAGTFDS [GP_Gibbs]: 3.6 nM (6 of 6 replicates; controls 0 of 18)
* GFTLNKYSIS / VIYSDGRRTSYGDSVK / GRAAGTFDS [Ctrl]: 25 nM (1 of 6 replicates; controls 1 of 18)
* GFKLNEYGIS / VIYSDGRRTFYTDSVK / GRFAGTFDS [GPLM_HC]: 1.7 nM (6 of 6 replicates; controls 0 of 18)
* GFYLNSYGIS / VIYSDGRRTFYDDSVK / GQIAGTFDS [GP_HC]: 150 nM (1 of 6 replicates; controls 0 of 18)

A selection of 7 entries from above:

CDR-H1,CDR-H2,CDR-H3,group,Kd,replicates with signal,control signals
GFTLDSYGIS,VIYSDGRRTFYADSVK,GREAGTFDT,GP_Gibbs,990 pM,6/6,0/18
GFTKNEYGIS,VIYSDGRRTFYGDSVK,GRAAVTFDQ,Rand,nd,0/6,0/18
GFTLNEYGIS,VIYSDGRRTFYSDSVK,GRAAGKFMS,GPLM_HC,nd,0/6,0/18
GFDLNEYGIS,VIYADGRRTFYTDSVK,GNNAGTFDS,En_HC,240 pM,6/6,0/18
GFTLNEYGIS,VIYSDGRRTFYGDSVK,GRHAGTFIS,GPLM_HC,nd,0/6,0/18
GFNLNSYGIS,VIYSDGRRTFYVDSVK,GQTAGTFDK,GP_Gibbs,14 nM,5/6,0/18
GFKLNEYGIS,VIYSDGRRTFYTDSVK,GRFAGTFDS,GPLM_HC,1.7 nM,6/6,0/18